Experimental data from ChEMBL document CHEMBL1137859, “Synthesis of C8-linked pyrrolo[2,1-c][1,4]benzodiazepine-benzimidazole conjugates with remarkable DNA-binding affinity” (2004).

System: Calf thymus DNA
Assay: Thermal denaturation of calf thymus DNA at 18 h, incubation at 37 degree C
Type: nucleic-acid assay
Settings: Bos taurus
Summary of the method: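 CT-DNA (100 μM) with ligand 20 μM (PBD/DNA molar ratio 1:5) in aqueous sodium phosphate buffer (10 mM sodium phosphate + 1 mM EDTA, pH 7.00±0.01). Incubated at 37 °C for 0 h or 18 h, then thermal helix→coil melting followed. ΔTm taken relative to DNA alone (Tm mean of 20 separate determinations). ΔTm values ±0.05–0.1 °C.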

COc1cc2c(cc1O)N=C[C@H]1CCCN1C2=O
ΔTm: 0.7 °C
